Measurements from PMC5506883 (Heliyon, 2017).

The chains behind the UniProt entries cited, without tags or fusion partners.
UniProt P81908, whole entry: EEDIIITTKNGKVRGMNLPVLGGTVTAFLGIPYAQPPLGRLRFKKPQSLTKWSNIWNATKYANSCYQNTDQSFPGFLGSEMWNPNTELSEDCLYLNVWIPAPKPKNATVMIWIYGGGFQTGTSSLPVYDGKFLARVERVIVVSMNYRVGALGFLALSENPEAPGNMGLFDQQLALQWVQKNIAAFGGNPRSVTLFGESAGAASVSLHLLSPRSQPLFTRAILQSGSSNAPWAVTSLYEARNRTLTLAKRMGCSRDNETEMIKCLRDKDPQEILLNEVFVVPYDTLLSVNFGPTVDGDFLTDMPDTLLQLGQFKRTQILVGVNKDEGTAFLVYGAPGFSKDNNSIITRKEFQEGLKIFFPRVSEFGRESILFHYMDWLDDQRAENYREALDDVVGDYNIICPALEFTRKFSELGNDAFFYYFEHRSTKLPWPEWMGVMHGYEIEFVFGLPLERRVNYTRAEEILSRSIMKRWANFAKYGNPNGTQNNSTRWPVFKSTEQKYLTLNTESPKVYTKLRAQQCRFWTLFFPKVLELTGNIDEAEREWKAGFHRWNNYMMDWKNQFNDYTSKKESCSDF

Biological target: Horse butyrylcholinesterase (EC 3.1.1.8) (Equus caballus, UniProt P81908)
Assay: Anticholinesterase assay
Assay type: biochemical
Details: Butyrylcholinesterase inhibition activity IC50 μM ± SEM, mean of three experiments with SEM; 15 min at 25 °C, pH 8.0

SMILES: CNC(=O)Oc1ccc2c(c1)[C@]1(C)CCN(C)[C@@H]1N2C [Eserine]
- IC50: 7.8 ± 0.27 µM
